Source: ChEMBL document CHEMBL5705888, “Substrate specificity and inhibitors of LRRK2, a protein kinase mutated in Parkinson's disease” (Biochem J, 2009)

The chains behind the UniProt entries cited, without tags or fusion partners.
Leucine-rich repeat serine/threonine-protein kinase 2 (Homo sapiens), Q5S007, UniProt Q5S007, whole entry G2019S: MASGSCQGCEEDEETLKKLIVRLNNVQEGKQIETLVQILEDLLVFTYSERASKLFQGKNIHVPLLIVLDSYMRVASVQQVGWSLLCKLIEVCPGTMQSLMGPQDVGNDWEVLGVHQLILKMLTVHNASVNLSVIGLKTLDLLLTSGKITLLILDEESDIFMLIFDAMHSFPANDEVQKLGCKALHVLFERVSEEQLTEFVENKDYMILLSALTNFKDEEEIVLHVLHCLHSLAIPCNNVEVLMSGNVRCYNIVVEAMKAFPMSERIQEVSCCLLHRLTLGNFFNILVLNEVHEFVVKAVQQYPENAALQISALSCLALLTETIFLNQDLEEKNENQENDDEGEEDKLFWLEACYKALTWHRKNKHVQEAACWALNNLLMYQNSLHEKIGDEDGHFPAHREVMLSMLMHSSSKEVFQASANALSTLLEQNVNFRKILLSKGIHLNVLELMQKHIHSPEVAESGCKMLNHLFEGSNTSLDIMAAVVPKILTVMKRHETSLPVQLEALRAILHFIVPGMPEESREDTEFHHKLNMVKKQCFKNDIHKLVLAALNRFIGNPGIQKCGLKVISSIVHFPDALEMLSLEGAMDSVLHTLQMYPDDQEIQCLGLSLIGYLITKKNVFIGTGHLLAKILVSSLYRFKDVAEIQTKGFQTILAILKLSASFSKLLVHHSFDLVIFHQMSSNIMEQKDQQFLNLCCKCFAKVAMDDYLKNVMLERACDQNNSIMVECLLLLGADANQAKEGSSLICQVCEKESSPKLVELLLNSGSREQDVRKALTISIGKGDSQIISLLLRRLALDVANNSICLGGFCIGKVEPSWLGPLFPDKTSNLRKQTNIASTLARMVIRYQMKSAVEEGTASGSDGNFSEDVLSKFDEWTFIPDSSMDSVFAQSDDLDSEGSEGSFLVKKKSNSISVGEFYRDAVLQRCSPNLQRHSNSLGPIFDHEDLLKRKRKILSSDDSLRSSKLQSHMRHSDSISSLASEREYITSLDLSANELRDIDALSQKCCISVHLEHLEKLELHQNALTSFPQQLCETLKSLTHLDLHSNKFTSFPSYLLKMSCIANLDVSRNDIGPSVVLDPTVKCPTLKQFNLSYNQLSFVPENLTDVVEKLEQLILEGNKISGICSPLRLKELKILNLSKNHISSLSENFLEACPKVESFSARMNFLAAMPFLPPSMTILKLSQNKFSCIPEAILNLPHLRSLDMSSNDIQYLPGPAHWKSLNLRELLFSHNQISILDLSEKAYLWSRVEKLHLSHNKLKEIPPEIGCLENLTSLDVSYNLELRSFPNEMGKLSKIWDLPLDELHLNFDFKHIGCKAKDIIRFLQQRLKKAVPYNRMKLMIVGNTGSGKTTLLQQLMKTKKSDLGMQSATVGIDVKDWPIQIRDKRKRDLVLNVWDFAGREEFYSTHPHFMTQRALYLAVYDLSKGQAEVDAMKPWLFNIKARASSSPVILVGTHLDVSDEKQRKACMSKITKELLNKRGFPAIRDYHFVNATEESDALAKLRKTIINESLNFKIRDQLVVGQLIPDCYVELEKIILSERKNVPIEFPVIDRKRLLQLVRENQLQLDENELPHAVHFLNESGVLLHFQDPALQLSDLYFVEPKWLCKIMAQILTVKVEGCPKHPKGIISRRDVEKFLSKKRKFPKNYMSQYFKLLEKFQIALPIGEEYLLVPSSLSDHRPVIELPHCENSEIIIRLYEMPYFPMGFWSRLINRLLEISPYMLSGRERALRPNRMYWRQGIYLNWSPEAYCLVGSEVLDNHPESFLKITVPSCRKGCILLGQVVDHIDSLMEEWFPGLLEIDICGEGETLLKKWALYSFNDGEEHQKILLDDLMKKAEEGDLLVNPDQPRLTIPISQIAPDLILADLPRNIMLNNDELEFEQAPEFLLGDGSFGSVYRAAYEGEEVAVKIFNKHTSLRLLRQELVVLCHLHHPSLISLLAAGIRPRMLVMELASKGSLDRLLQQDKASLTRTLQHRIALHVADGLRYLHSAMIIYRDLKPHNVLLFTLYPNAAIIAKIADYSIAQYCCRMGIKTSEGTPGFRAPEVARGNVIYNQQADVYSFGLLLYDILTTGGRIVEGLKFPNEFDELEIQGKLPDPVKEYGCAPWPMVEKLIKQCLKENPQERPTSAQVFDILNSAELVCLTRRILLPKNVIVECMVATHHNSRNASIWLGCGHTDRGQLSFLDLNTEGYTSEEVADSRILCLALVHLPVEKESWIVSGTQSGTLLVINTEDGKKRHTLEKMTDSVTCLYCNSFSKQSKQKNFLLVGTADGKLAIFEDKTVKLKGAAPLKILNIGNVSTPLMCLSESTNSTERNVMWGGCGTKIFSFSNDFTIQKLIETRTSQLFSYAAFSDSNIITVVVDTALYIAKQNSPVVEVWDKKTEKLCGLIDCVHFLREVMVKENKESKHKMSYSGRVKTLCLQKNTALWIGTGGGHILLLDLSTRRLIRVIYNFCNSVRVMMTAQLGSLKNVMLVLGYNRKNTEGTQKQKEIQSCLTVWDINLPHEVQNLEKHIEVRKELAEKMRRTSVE

Test system: Leucine-rich repeat serine/threonine-protein kinase 2 (Homo sapiens), Q5S007 [G2019S]
Test: Inhibition of LRRK2 G2019S mutant (unknown origin) at 1 uM incubated for 30 mins in presence of [gamma-33P]ATP by multidrop micro reagent based assay relative to control; values are per cent of control

SMILES: CCN(CC)CCNC(=O)c1c(C)[nH]c(/C=C2\C(=O)Nc3ccc(F)cc32)c1C
- residual activity: 3%
